Each structure is given as a SMILES string. Only a part is listed here, and it is no random draw. Some results for these compounds are left out of this collection, so the calls shown say nothing about other tests. The source made the active and inactive calls. Rule as the data show it: active = inhibition above about 45%; inactive = the rest.

Sequences of proteins named here, by UniProt entry; tags and fusion partners are left off.
UniProt O95136, whole entry: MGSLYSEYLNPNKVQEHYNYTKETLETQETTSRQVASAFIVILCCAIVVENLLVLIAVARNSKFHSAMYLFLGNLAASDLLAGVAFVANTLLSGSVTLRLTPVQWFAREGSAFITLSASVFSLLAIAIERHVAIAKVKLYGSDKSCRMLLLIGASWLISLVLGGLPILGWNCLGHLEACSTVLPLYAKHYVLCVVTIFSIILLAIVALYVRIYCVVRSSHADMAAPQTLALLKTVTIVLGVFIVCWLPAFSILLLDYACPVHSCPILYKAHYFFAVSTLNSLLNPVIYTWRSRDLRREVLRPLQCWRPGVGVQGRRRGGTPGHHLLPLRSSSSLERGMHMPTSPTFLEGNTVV

This experiment concerns the target Sphingosine 1-phosphate receptor 2 (Homo sapiens) (UniProt O95136). Description: blockers of S1P2 receptor signalling – cell-based, primary screen (AID 736).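 Also: CRE beta-lactamase reporter cells expressing human S1P2 stimulated with S1P; 0% = agonist at EC80 alone and 100% = agonist plus reference antagonist.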 The following applies: cell-based S1P2 antagonist assay, at 5 µM, stronger effect = higher value.
The term inhibition denotes the change of the read-out against control, counted positive when it falls. Take `CC(C)N1C(=O)CC2(CCN(CCOC(=O)C(O)(c3ccccc3)c3ccccc3)CC2)C1=O`: the inhibition is inactive: 16.2%.

Consider `CN(C)c1cccc(C(=O)NCC2(N(C)C)CCCCC2)c1`, for which the inhibition was inactive: 14.4%.

As to `O=C(OC1CN2CCC1CC2)C(CO)(c1ccccc1)c1ccccc1` (stereo not drawn), the inhibition is inactive: -10.4%.

The values are drawn from PubChem BioAssay AID736 (The Scripps Research Institute Molecular Screening Center, 2007).
